Reference: patent publication US20250235547A1, “ANTIBODY-DRUG CONJUGATE” (UBE Corporation, priority 2022, published 2025)

What was measured:
[1] = test system: HER2-positive human gastric cancer cell line (NCI-N87); assay: Growth inhibition test of HER2-positive human gastric cancer cell line (NCI-N87); format: cell-based; details: NCI-N87, treatment concentration 100 ng/mL, 6 days
Experimental: NCI-N87 is generally used as a HER2-overexpressing cell line (Clin Cancer Res; 22(20) Oct. 15, 2016). NCI-N87 (ATCC, CRL-5822) was cultured in RPMI 1640 Medium (ATCC Modification)(manufactured by Thermo Fisher Scientific, A10491-01) containing 10% fetal bovine serum (manufactured by Corning Inc., 35-011-CV) and 1% penicillin/streptomycin (manufactured by Thermo Fisher Scientific, 15140-122). The cells were seeded to a 96 well plate (manufactured by Corning Inc., 353377) at 1.0×10^3 cells/100 μL/well. […] The cells were cultured under 5% CO2 at 37° C. for 6 days, then CellTiter-Glo (manufactured by Promega, G9241) was added thereto at 100 μL/well, and a microplate reader (FlexStation 3, manufactured by Molecular Device, LLC) was used to measure the luminescence amount of each well.
The growth inhibition rate (%) was calculated by the following equation.
[formula] • a: average luminescence amount in vehicle-treated well (n=3) • b: average luminescence amount in test compound-treated well (n=3) • c: average luminescence amount before test compound treatment (n=3)

[2] = Pharmacokinetic test (serum trastuzumab residual rate); format: in vivo; details: female BALB/c mouse, intravenous; 3 days vs 5 minutes after administration
Excerpt: After a prescribed time period, the blood was collected from the jugular vein or abdominal vein, and centrifuged to prepare a serum. The resulting serum was cryopreserved until the measurement.

Trastuzumab
Cell growth inhibitory activity (growth inhibition rate) [1]: 14 to 35%
Serum trastuzumab residual rate after 3 days from administration (%) [2]: 21 to 33%
